# Results: ChEMBL document CHEMBL4513141, “CO-ADD screening of NIH (USA) - Clinical Collection” (2021)
# For part of these data: Most of the strong results are listed elsewhere, so they are rarer here than in the full data. Measured potencies and affinities stand elsewhere. Only a part is listed here, and it is no random draw.
# Experiments:
# Conditions in all cases: Concentration 20 uM; ASSAY_TEST Inhibition of Bacterial Growth; detection method Absorption (OD600); MEDIA CAMHB; plate type 384well; NBS; CORNING #3640; time 18 hr
# Staphylococcus aureus = system: Staphylococcus aureus
# Escherichia coli = system: Escherichia coli
# Acinetobacter baumannii = system: Acinetobacter baumannii
smiles,measurement,setting,value
COc1ccc(C[C@H](C)NC[C@@H](O)c2ccc(O)c(NC=O)c2)cc1.O.O.O=C(O)/C=C/C(=O)O,Inhibition,Staphylococcus aureus,7.68%
same,Inhibition,Escherichia coli,5.98%
same,Inhibition,Acinetobacter baumannii,20.06%
